Results: BindingDB's records for doi:10.1016/j.bmcl.2005.10.013 (Universidad De Santiago De Compostela, 2005)

Assay: Inhibition of thrombin-induced platelet aggregation in human

IC50: 196 µM
SMILES: Oc1ccc(/C=C/c2cc(O)cc(O)c2)cc1 [5-[(E)-2-(4-hydroxyphenyl)ethenyl]benzene-1,3-diol]
